According to publication doi:10.1101/2025.02.26.640323, “Aggregation-Dependent Epitope Sequence and Modification Fingerprints of Anti-Aβ Antibodies” (bioRxiv, 2025):

What was measured:
[1] = tested on: Alzheimer's disease patients; conditions: cited from earlier work
Source text: Despite extensive structural, genetic, and pre-clinical investigations, clinical trials of Aβ antibodies have yielded ambiguous outcomes. Aβ antibody binding to cerebral amyloid angiopathy (CAA) has been hypothesized to correlate with the frequency of amyloid-related imaging abnormalities with edema (ARIA-E) observed in patients treated with Aβ-based immunotherapies.

[2] = tested on: Aβ phosphorylated at Ser(8); experiment: PTM-Aβ microarray, pSer8; type: binding, human; conditions: optimized antibody concentrations (Aducanumabbs 0.02μg/mL; 1E4E11 0.25μg/mL), vs unphosphorylated
Source text: Specific PTMs might be associated with different stages of AD progression and severity, offering potential biomarkers for diagnosis and prognosis. Targeting PTMs represents a potential therapeutic strategy to prevent Aβ aggregation and neurotoxicity, thereby slowing disease progression. […] Therefore, a selected group of PTM-carrying Aβ peptides (PTM-Aβ) were incorporated into the Aβ chip to explore the potential binding preference of selected Aβ-Abs, under optimized concentrations (Figure 3). The antibodies were tested with both PTM-Aβ and the corresponding unmodified variants to provide a head-to-head comparison. This screening was performed in the presence of Aβ phosphorylated at positions Ser(8) or Ser(26), N-terminal pE at position 3, racemization/isomerization of Asp at position 1, and unmodified N-terminal variants. The dataset is divided into sections (Figure 3 a–f) for enhanced visualization, where each antibody was screened simultaneously against all peptides to locate their epitope preferences. […] A set of antibodies without reported PTM preference was applied here as controls (refer to Table 1), namely 11H3, 101–1-1, IC16, 82E1 and 3D6.
Figure 3. […] Blue and red shades indicate the binding strength over the related arrayed […] modified peptide shown on top and cognate anti-Aβ antibody to the left. […]

## Aducanumab: recombinant human antibody, Neurimmune AG/Biogen
[1]; Clinical Dementia Rating Sum of Boxes, high dose vs. placebo, ref [43]
  clinical outcome, EMERGE (Phase 3): statistically significantly slower decline
[1]; cross-study comparison, ref [38]
  ARIA-E frequency: 25–35%
[1]; primary endpoints, ref [43]
  clinical outcome, ENGAGE (Phase 3): failed to meet its primary endpoints
[2]
  preference for pSer8 Aβ: preference of Aducanumab for Ser8-phosphorylated Aβ for non-aggregated forms
